Results published in patent US20200115416A1 (REGENTS OF THE UNIVERSITY OF MINNESOTA, published 2020).

Sequences of proteins named here, by UniProt entry; tags and fusion partners are left off.
UniProt P32245, whole entry: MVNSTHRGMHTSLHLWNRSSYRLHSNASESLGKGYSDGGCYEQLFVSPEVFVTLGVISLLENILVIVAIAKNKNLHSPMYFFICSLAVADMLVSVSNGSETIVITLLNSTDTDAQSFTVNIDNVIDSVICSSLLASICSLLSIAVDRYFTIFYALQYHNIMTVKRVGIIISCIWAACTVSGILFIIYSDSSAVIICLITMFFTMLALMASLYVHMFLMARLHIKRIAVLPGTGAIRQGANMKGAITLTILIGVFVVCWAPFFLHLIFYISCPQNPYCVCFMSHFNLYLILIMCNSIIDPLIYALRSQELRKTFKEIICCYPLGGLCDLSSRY

What was measured:
[1] = molecular target: T1, human melanocortin-4 receptor (human, UniProt P32245 1-332); assay: displacement of 125I-AGRP, HEK293 cells expressing hMC4R
T1 construct: whole, on cells; in the thallium flux assay co-expressed with Kir7.1 (M125R); also called hMC4R; wildtype hMC4R

[2] = molecular target: T1, human melanocortin-4 receptor; assay: displacement of 125I-NDP-MSH, HEK293 cells expressing hMC4R

IC50 [1]: 44 nM
IC50 [2]: 120 nM
Binder: PRFFHAFP (head-to-tail cyclic; DPro at 8) [c[Pro-Arg-Phe-Phe-His-Ala-Phe-DPro]]
